Measured values reported in publication PMC9012159, “A comparative biodistribution study of polymeric and lipid-based nanoparticles” (Drug Delivery and Translational Research, 2022).

Conditions: rat, in vivo

dose response (concentration ratio normalized to injected dose): < 1 | sampling point at which the organ:blood ratio reaches its peak: 24- to 96 h
Substance: IR780-oleyl
